Laboratory results from US6583179B2, “Substituted aminoalkylamide derivatives as antagonists of follicle stimulating hormone” (Ortho-McNeil Pharmaceutical, Inc., priority 1999, dated 2003).

Chains of the proteins cited; added tags and fusions are not shown. Residues count along the entry.
UniProt P23945, 18-695 limits assumed: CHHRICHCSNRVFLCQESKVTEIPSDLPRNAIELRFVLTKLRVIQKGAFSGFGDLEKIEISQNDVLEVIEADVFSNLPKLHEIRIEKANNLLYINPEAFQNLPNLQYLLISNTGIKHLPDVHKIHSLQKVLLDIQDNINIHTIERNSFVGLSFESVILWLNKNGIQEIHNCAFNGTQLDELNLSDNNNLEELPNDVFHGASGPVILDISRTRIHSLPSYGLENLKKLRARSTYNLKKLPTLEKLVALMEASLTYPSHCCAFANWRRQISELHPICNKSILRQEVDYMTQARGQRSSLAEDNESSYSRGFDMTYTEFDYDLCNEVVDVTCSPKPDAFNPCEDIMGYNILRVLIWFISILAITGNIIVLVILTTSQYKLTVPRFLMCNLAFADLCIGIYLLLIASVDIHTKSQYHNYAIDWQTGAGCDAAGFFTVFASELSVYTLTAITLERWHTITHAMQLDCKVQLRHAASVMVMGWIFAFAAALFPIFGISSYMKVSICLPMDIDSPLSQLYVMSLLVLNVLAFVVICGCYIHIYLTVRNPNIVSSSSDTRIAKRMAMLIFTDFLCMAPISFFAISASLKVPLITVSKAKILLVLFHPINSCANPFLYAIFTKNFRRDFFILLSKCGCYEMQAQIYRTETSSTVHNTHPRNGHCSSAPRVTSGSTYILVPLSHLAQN

Columns and labels:
human FSH receptor = human FSH receptor (Homo sapiens, UniProt P23945); assay: hFSHR CHO cAMP assay (rhFSHR-cLUC cells, FSH-stimulated cAMP, radioimmunoassay); settings: read-out: EC50 hFSHR CHO cAMP; inhibition of cAMP produced by EC70 dose of FSH (4.85 nM); maximum concentration 50 μM
Rat Granulosa Cell = assay: Rat granulosa cell FSH-stimulated cAMP production; settings: read-out: Rat Granulosa Cell EC50 cAMP; inhibition of cAMP produced by EC70 dose of FSH (1.4 nM); maximum concentration 50 μM
Method: Insulin, diethylstilbesterol, androstenedione, forskolin and DMSO were purchased from Sigma (St. Louis, Mo.). Fungizone, penicillin/streptomycin, charcoal-treated heat inactivated fetal bovine serum (CT-HI-FBS) and Dulbecco's Modified Eagle Medium:Hams F12 medium containing 15 mM Hepes and L-glutamine (DMEM:F12), were purchased from GIBCO BRL (Grand Island, N.Y.).
Ovine FSH (NIADDK-oFSH-17; FSH potency=20 NIH-FSH-S1 U/mg; LH contamination=0.04 times NIH-LH-S1) was received from Ogden Bioservices Corporation, Rockville, Md. Human FSH (Fertinex), was purchased from Serono Pharmaceutical (Framingham, Mass.). Human chorionic gonadotropin (hCG) was purchased from Sigma (St Louis, Mo.).
Immature intact female rats (Wistar-derived strain; 21-23 days old) were implanted with a single pellet (Innovative Research of America, Sarasota, Fla.) containing 2.5 mg diethylstilbesterol (DES) for 3 days. On the third day, the animals were sacrificed, the ovaries were removed, and the granulosa cells were isolated essentially as described in Haynes-Johnson et al., Biol. Reprod., 61 (1), 147-153, (1999). Granulosa cells were plated at a density of 300,000 cells per ml with 0.2 ml added to each well of 96 well culture dishes (Corning, N.Y.). Cultures were incubated at 37° C. in a humidified incubator (95% air, 5% CO2) overnight (18 hours).
Androstenedione (100,000X) was prepared by dissolving the steroid in 100% ethanol, and was subsequently diluted to a final concentration of 10^−7M containing 0.1% ethanol in assay media. The assay media was serum-free, DES-free, insulin-free media, prepared by adding 5 mL pen-strep,1.5 mL fungizone and 5 μL androstenedione to 493.5 mL DMEM F-12 media.
Test compounds were solubilized in 30% dimethyl sulfoxide (DMSO) at a concentration of 10 mM before diluting to appropriate concentrations in assay medium. The final DMSO concentration in the treated cells and in the control cells was 0.75%.
Test plates containing the granulosa cells were preincubated for 18 hours at 37° C. with 95% air, 5% CO2, 100% humidity. The spent media was removed and 50 μl assay media (DMEM:F12) containing 2 mM IBMX (3-isobutyl-1-methyl-xanthine) was added to the cells. Compounds (25 μl) in the appropriate concentration were added followed 5 minutes later by an EC70 dose of FSH (25 μl; 50 ng/ml; 1.4 nM). After 30 minutes @ 22.5° C. (room temperature) the reaction was terminated by addition of 25 μL 0.5 N hydrochloric acid to each well. The amount of cAMP produced was measured by radioimmunoassay in a FlashPlate (DuPont, Boston, Mass.). To each flash plate 60 μL flash plate buffer was added followed by 40 μL acidified cell sample or cAMP standard, followed with the addition of 100 μl ^125l-cAMP trace. The FlashPlates were sealed, incubated overnight @ room temperature, and counted in a Packard TopCount (Packard Instrument Co., Meriden, Conn.). The cAMP radioimmunoassay results were calculated using DPM conversion and log-logit transformation of % binding (Excel program).

SMILES	EC50 (human FSH receptor)	EC50 (Rat Granulosa Cell)
COc1ccccc1-c1ccc(S(=O)(=O)N(CC(=O)NCc2ccc(CN)cc2)C[C@H](C)c2ccccc2)cc1 [200]	320 nM	50 nM
COc1ccccc1CN(CC(=O)NCC1CCC(CN)CC1)S(=O)(=O)c1ccc(-c2ccccc2Cl)cc1 (stereo not shown)	600 nM	210 nM
COc1ccc(S(=O)(=O)N(CC(=O)NCC2CCC(CN)CC2)Cc2ccccc2OC)cc1C (stereo not shown)	≥ 50000 nM	25700 nM

The next lines start with the values.

EC50 (human FSH receptor)	EC50 (Rat Granulosa Cell)	SMILES
680 nM	280 nM	COc1ccccc1CCN(CC(=O)NCc1ccc(CN)cc1)S(=O)(=O)c1ccc(-c2ccccc2C)cc1
12700 nM	260 nM	COc1ccccc1CN(CC(=O)NCC1CCC(CN)CC1)S(=O)(=O)c1cccc(C(F)(F)F)c1 (stereo not shown)
